The values below come from ChEMBL document CHEMBL4376859, “Prodrugs for nitroreductase-based cancer therapy-3: Antitumor activity of the novel dinitroaniline prodrugs/Ssap-NtrB enzyme suicide gene system: Synthesis, in vitro and in silico evaluation in prostate cancer” (Eur J Med Chem, 2020).

Sequences of proteins named here, by UniProt entry; tags and fusion partners are left off. Residues count along the entry.
UniProt Q4A0P1, 1-208: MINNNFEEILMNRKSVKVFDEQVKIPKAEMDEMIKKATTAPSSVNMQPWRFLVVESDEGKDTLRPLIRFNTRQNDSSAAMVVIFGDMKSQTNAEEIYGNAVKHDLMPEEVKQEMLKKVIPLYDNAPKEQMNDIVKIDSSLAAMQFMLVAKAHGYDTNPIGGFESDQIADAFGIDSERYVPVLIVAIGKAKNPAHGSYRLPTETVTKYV

Series [1] addresses T1, Putative nitroreductase (Staphylococcus saprophyticus subsp. saprophyticus (strain ATCC 15305 / DSM20229 / NCIMB 8711 / NCTC 7292 / S-41), UniProt Q4A0P1). Put plainly: Substrate activity at Staphylococcus saprophyticus nitroreductase expressed in Escherichia coli BL21 (DE3) assessed as retention time by HPLC analysis.
Series [2] deals with PC-3. Put plainly: Cytotoxicity against human PC3 cells […] Staphylococcus saprophyticus nitroreductase NtrB assessed as reduction in cell viability in presence of NADH as cofactor after 48 hrs by SRB assay. On the technique in general: The SRB assay estimates cell density from bound dye.
The test system of series [3] is HUVEC. Put plainly: Cytotoxicity against human HUVEC cells assessed as cell viability at 9 to 150 uM after 24 hrs by MTT assay relative to control. The class given is cell-based.
Series [4] relates to HUVEC. In words: Cytotoxicity against human HUVEC cells assessed as cell viability at 9 to 150 uM after 48 hrs by MTT assay relative to control. The class given is cell-based.
The target of series [5] is T1, Putative nitroreductase. Put plainly: Substrate activity at Staphylococcus saprophyticus nitroreductase NtrB assessed as enzyme specific activity using NADH as cofactor in Tris-Cl buffer at pH 7.5 by HPLC analysis.
The test system of series [6] is Hep 3B2. In words: Cytotoxicity against human Hep3B cells assessed as cell viability after 24 hrs by MTT assay. (Formazan colour is commonly taken as a measure of viable cells.)
The test system of series [7] is Hep 3B2. In words: Cytotoxicity against human Hep3B cells assessed as cell viability after 48 hrs by MTT assay.
Series [8] concerns the target T1, Putative nitroreductase. In words: Substrate activity at Staphylococcus saprophyticus nitroreductase NtrB assessed as Kcat using NADH as cofactor in Tris-Cl buffer at pH 7.5 by HPLC analysis.
Series [9] has as its target T1, Putative nitroreductase. In words: Substrate activity at Staphylococcus saprophyticus nitroreductase NtrB assessed as Km using NADH as cofactor in Tris-Cl buffer at pH 7.5 by HPLC analysis.
Series [10] deals with T1, Putative nitroreductase. Put plainly: Substrate activity at Staphylococcus saprophyticus nitroreductase NtrB assessed as Kcat/Km using NADH as cofactor in Tris-Cl buffer at pH 7.5 by HPLC analysis.
Series [11] deals with T1, Putative nitroreductase. Put plainly: Substrate activity at Staphylococcus saprophyticus nitroreductase NtrB assessed as Kcat/Km using NADH as cofactor in Tris-Cl buffer at pH 7.5 by HPLC analysis relative to CB1954/NfsB.
The target of series [12] is T1, Putative nitroreductase. In words: Prodrug activation assessed as Ssap-NtrB-mediated metabolite formation measured after 15 mins by LC-MS/MS analysis. Conditions: 0.25 h.
Series [13] deals with PC-3. In words: Cytotoxicity against human PC3 cells assessed as cell viability after 48 hrs by MTT assay.
Series [14] deals with HUVEC. Put plainly: Cytotoxicity against human HUVEC cells assessed as cell viability after 48 hrs by MTT assay. The class given is cell-based.
In series [15] the target is T1, Putative nitroreductase. In words: Binding affinity to Staphylococcus saprophyticus nitroreductase NtrB.

As a reminder, the IC50 is the midpoint of a concentration-inhibition curve. Take `O=[N+]([O-])c1cccc(Nc2ccc([N+](=O)[O-])cc2[N+](=O)[O-])c1`: the Retention time in series [1] stood at 17.7 min. In [2], the IC50 was found to be 5.07 µM. The Activity in series [3] and in series [4] was greater than 80% throughout.

Regarding `O=[N+]([O-])c1ccc(Nc2cccc(Nc3ccc([N+](=O)[O-])cc3[N+](=O)[O-])c2)c([N+](=O)[O-])c1`, in series [1], the Retention time was 18.8 min. Also, the Activity in series [3] and in series [4] was greater than 80% throughout.

Take `Nc1ccc(Nc2ccc([N+](=O)[O-])cc2[N+](=O)[O-])c([N+](=O)[O-])c1`: in series [1], the Retention time amounted to 21.8 min. Also, the Activity in [5] was 0.16 U/mg; in series [3], greater than 80%; in [4], greater than 80%. In [2], the IC50 is 7.13 µM.

In the case of `O=[N+]([O-])c1cccc(Nc2cc(Nc3cccc([N+](=O)[O-])c3)c([N+](=O)[O-])cc2[N+](=O)[O-])c1`, the values for the IC50 in series [6] and in [7] were 5.4 µM and 4.8 µM, respectively. Moreover, the Retention time in [1] stood at 24 min. The figures for the Activity in series [5], in series [3] and in [4] were 0.6 U/mg, 51 to 80% and 51 to 80%, respectively.

One may read the Km as the concentration of substrate that gives half-maximal velocity. For the compound `O=[N+]([O-])c1ccc(Nc2ccc(Nc3ccc([N+](=O)[O-])cc3[N+](=O)[O-])cc2)c([N+](=O)[O-])c1`, the Retention time in [1] worked out at 26 min. In addition, in [8], the Kcat worked out at 0.016 s⁻¹. In series [9], the Km stood at 301 µM. In addition, the Kcat/Km in [10] was found to be 53 M⁻¹ s⁻¹. In addition, the fold change (FC) in series [11] came out at 0.01. Also, the Activity was 0.12 U/mg in series [5], greater than 80% in series [3] and greater than 80% in [4].

Consider `O=[N+]([O-])c1ccc(Nc2ccc([N+](=O)[O-])cc2[N+](=O)[O-])cc1`, for which the Retention time in series [1] came out at 17.7 min. For the same compound, the Drug metabolism entry in series [12] was “Metabolite_Detected”. Also, in series [2], the IC50 worked out at 4.98 µM. In addition, the Activity in series [3] and in series [4] was greater than 80% in each case.

In the case of `O=[N+]([O-])c1ccc(Nc2cc(Nc3ccc([N+](=O)[O-])cc3)c([N+](=O)[O-])cc2[N+](=O)[O-])cc1`, the IC50 in [6] was 12.2 µM; in [7] it was 12.3 µM; in series [13] it was 74.1 µM; in series [14], 35.1 µM. In series [1], the Retention time is 13.5 min. The Activity in series [5] was 0.02 U/mg; in [3], 51 to 80%.

`O=[N+]([O-])c1ccc(NC2CCCC(Nc3ccc([N+](=O)[O-])cc3[N+](=O)[O-])C2)c([N+](=O)[O-])c1` (centres undefined): the Retention time in series [1] was 19 min. Moreover, in series [2], the half-maximal inhibitory concentration (IC50) is 9.58 µM. Further, the Activity in series [3] and in series [4] was greater than 80% in each case.

`O=[N+]([O-])c1ccc(NC2CCC(Nc3ccc([N+](=O)[O-])cc3[N+](=O)[O-])CC2)c([N+](=O)[O-])c1` (centres undefined): in [1], the Retention time worked out at 27 min. Besides, the Activity in series [3] and in series [4] was greater than 80% each time.

As usually defined, the Ki is the equilibrium dissociation constant of an inhibitor or competing ligand from its target. Lower therefore signals a stronger hold on the target. For the compound `O=[N+]([O-])c1ccc(Nc2ccc([N+](=O)[O-])cc2[N+](=O)[O-])c(Nc2ccc([N+](=O)[O-])cc2[N+](=O)[O-])c1`, the Retention time in series [1] came to 21.3 min. Besides, the Activity in series [5] was 2.12 U/mg; in [3], greater than 80%; in [4], greater than 80%. The IC50 in [2] stood at 0.0018 µM. Further, affinity in series [15] was put at a Ki of 0.896 µM.

Regarding `O=[N+]([O-])c1ccc(N2CCN(c3ccc([N+](=O)[O-])cc3[N+](=O)[O-])CC2)c([N+](=O)[O-])c1`, the Retention time in series [1] was found to be 17.6 min. Also, the IC50 in series [2] amounted to 0.00399 µM. The Activity in series [3] and in [4] was greater than 80% in each case.

As to `O=[N+]([O-])c1ccc(NC2CCCCC2Nc2ccc([N+](=O)[O-])cc2[N+](=O)[O-])c([N+](=O)[O-])c1` (centres undefined), in series [1], the Retention time is 18.3 min. Besides, the IC50 in series [2] was determined as 5.73 µM. For the same compound, the Activity in [3] and in series [4] was greater than 80% throughout.

On to `O=[N+]([O-])c1ccc(NCCNc2ccc([N+](=O)[O-])cc2[N+](=O)[O-])c([N+](=O)[O-])c1`, for which the Retention time in series [1] was 23.2 min. For the same compound, the IC50 in series [2] amounted to 0.00079 µM. In series [15], this compound registered a Ki of 0.283 µM. Further, the Activity in series [3] and in [4] was greater than 80% each time.

`O=[N+]([O-])c1ccc(NCCCCNc2ccc([N+](=O)[O-])cc2[N+](=O)[O-])c([N+](=O)[O-])c1`: the Retention time in series [1] was 25 min. Moreover, the Activity in series [5] is 2.1 U/mg; in series [3], greater than 80%; in [4], greater than 80%. The IC50 in series [2] was 7.83 µM.
